Experimental data as given in patent US9447056B2, “Solid forms of epalrestat” (Bionevia Pharmaceuticals, Inc., priority 2008, dated 2016).

Columns and labels:
[1] = at specified conditions (not detailed); DVS profile FIG. 17
Protocol: Samples were not dried prior to analysis. Equilibrium criteria used for analysis were less than 0.0100% weight change in 5 minutes, with a maximum equilibration time of 3 hours if the weight criterion was not met. Data were not corrected for the initial moisture content of the samples. NaCl and PVP were used as calibration standards.

[2] = ambient temperature, FIG. 18B, product of Example 8 versus epalrestat free acid

## betaine hydrogen diepalrestat [betaine hydrogen diacid cocrystal]
[1]
  stability to decomposition from uptake of moisture: stable to decomposition from uptake of moisture
[2]
  dissolution of epalrestat in water compared with the free acid: dissolves more quickly
